{"source": "paper PMC9886975", "about": "“Ligand recognition mechanism of the human relaxin family peptide receptor 4 (RXFP4)” (Nature Communications, 2023)", "key": {"RXFP4 T295V": {"biological_target": "RXFP4 T295V (Homo sapiens, UniProt Q8TDU9, T295V)", "test": "cAMP accumulation, RXFP4 T295V", "assay_type": "cell-based", "conditions": "HEK293T; mean ± S.E.M."}, "RXFP4 R194A": {"biological_target": "RXFP4 R194A (Homo sapiens, UniProt Q8TDU9, R194A)", "test": "cAMP accumulation, RXFP4 R194A", "assay_type": "cell-based", "conditions": "HEK293T; mean ± S.E.M."}, "RXFP4 K273A": {"biological_target": "RXFP4 K273A (Homo sapiens, UniProt Q8TDU9, K273A)", "test": "cAMP accumulation, RXFP4 K273A", "assay_type": "cell-based", "conditions": "HEK293T; mean ± S.E.M."}, "RXFP4 R208K": {"biological_target": "RXFP4 R208K (Homo sapiens, UniProt Q8TDU9, R208K)", "test": "cAMP accumulation, RXFP4 R208K", "assay_type": "cell-based", "conditions": "HEK293T; mean ± S.E.M."}, "RXFP3 K271R": {"system": "RXFP3 K271R", "test": "cAMP accumulation, RXFP3 K271R", "assay_type": "cell-based, human", "conditions": "HEK293T, mean ± S.E.M."}, "RXFP3 and RXFP4": {"system": "RXFP3 and RXFP4", "conditions": "cited from earlier work"}, "RXFP4 H299A": {"biological_target": "RXFP4 H299A (Homo sapiens, UniProt Q8TDU9, H299A)", "test": "cAMP accumulation, RXFP4 H299A", "assay_type": "cell-based", "conditions": "HEK293T"}, "RXFP4 Q205H": {"biological_target": "RXFP4 Q205H (Homo sapiens, UniProt Q8TDU9, Q205H)", "test": "cAMP accumulation, RXFP4 Q205H", "assay_type": "cell-based", "conditions": "HEK293T; mean ± S.E.M."}, "RXFP4 T121A": {"biological_target": "RXFP4 T121A (Homo sapiens, UniProt Q8TDU9, T121A)", "test": "cAMP accumulation, RXFP4 T121A", "assay_type": "cell-based", "conditions": "HEK293T"}, "RXFP4 WT": {"biological_target": "RXFP4 WT (Homo sapiens, UniProt Q8TDU9)", "test": "cAMP accumulation, WT RXFP4 (HEK293T)", "assay_type": "cell-based", "conditions": "[…] forskolin, mean ± S.E.M."}, "RXFP4 L118S+V122S": {"biological_target": "RXFP4 L118S+V122S (Homo sapiens, UniProt Q8TDU9, L118S/V122S)", "test": "cAMP accumulation, RXFP4 L118S+V122S", "assay_type": "cell-based", "conditions": "HEK293T"}, "RXFP4 W97A": {"biological_target": "RXFP4 W97A (Homo sapiens, UniProt Q8TDU9, W97A)", "test": "cAMP accumulation, RXFP4 W97A", "assay_type": "cell-based", "conditions": "HEK293T"}, "RXFP4 F105A": {"biological_target": "RXFP4 F105A (Homo sapiens, UniProt Q8TDU9, F105A)", "test": "cAMP accumulation, RXFP4 F105A", "assay_type": "cell-based", "conditions": "HEK293T; mean ± S.E.M."}, "RXFP3 H268Q": {"system": "RXFP3 H268Q", "test": "cAMP accumulation, RXFP3 H268Q", "assay_type": "cell-based, human", "conditions": "HEK293T, mean ± S.E.M."}, "RXFP4 R208A": {"biological_target": "RXFP4 R208A (Homo sapiens, UniProt Q8TDU9, R208A)", "test": "cAMP accumulation, RXFP4 R208A", "assay_type": "cell-based", "conditions": "HEK293T"}}, "data": [{"smiles": "CCc1cc(O)cc2c(/C=N/NC(=N)NCCc3ccc(Cl)cc3)c[nH]c12", "values": [{"measurement": "Emax", "setting": "RXFP4 T295V", "result": "41.58 ± 2.93", "unit": "% WT"}, {"measurement": "Emax", "setting": "RXFP4 R194A", "result": "78.96 ± 8.75", "unit": "% WT"}, {"measurement": "Emax", "setting": "RXFP4 K273A", "result": "76.06 ± 6.54", "unit": "% WT"}, {"measurement": "Emax", "setting": "RXFP4 R208K", "result": "69.09 ± 4.02", "unit": "% WT"}, {"measurement": "pEC50", "setting": "RXFP3 K271R; 4 μM forskolin, n = 3", "result": "7.21 ± 0.17"}, {"measurement": "Emax", "setting": "RXFP3 K271R", "result": "70.86 ± 5.48", "unit": "% WT"}, {"measurement": "agonist type", "setting": "RXFP3 and RXFP4", "result": "RXFP3/RXFP4 dual agonist"}, {"measurement": "cAMP response", "setting": "RXFP4 H299A", "result": "abolished cAMP responses"}, {"measurement": "Emax", "setting": "RXFP4 Q205H", "result": "49.35 ± 7.02", "unit": "% WT"}, {"measurement": "decrease of potency vs WT", "setting": "RXFP4 T121A", "result": 20.1, "unit": "fold"}, {"measurement": "Emax", "setting": "RXFP4 T121A; mean ± S.E.M.", "result": "59.77 ± 8.29", "unit": "% WT"}, {"measurement": "Emax", "setting": "RXFP4 WT", "result": "98.22 ± 3.01", "unit": "% WT"}, {"measurement": "response", "setting": "RXFP4 L118S+V122S", "result": "without notable influence"}, {"measurement": "Emax", "setting": "RXFP4 L118S+V122S; mean ± S.E.M.", "result": "106.23 ± 4.75", "unit": "% WT"}, {"measurement": "cAMP response", "setting": "RXFP4 W97A", "result": "abolished cAMP responses"}, {"measurement": "Emax", "setting": "RXFP4 F105A", "result": "60.11 ± 5.70", "unit": "% WT"}, {"measurement": "pEC50", "setting": "RXFP3 H268Q; 4 μM forskolin, n = 3", "result": "7.39 ± 0.11"}, {"measurement": "Emax", "setting": "RXFP3 H268Q", "result": "92.52 ± 4.71", "unit": "% WT"}, {"measurement": "decrease of potency vs WT", "setting": "RXFP4 R208A", "result": 6.6, "unit": "fold"}, {"measurement": "Emax", "setting": "RXFP4 R208A; mean ± S.E.M.", "result": "63.76 ± 4.94", "unit": "% WT"}]}]}
